Test results published in US8354433B2, “Anti-inflammatory agents as virostatic compounds” (4SC AG, priority 2009, dated 2013).

Tested on: HCV subgenomic replicon of genotype 1b
Assay type: cell-based, Hepatitis C Virus

Question: Which “Antiviral Activity EC50/nM” value does the source give for “rIFNa-2b: Recombinant human interferon alpha-2b, positive antiviral control in the HCV replicon assay” here?
Answer: 0.11 IU/mL
